One compound from ChEMBL document CHEMBL2203183, “Synthesis of N-phenyl-N-(3-(piperidin-1-yl)propyl)benzofuran-2-carboxamides as new selective ligands for sigma receptors” (Bioorg Med Chem, 2012) can be followed below.

This assay deals with PC-12. As to the kind of experiment: Selectivity ratio of Ki for sigma 2 receptor in rat PC12 cell membrane to Ki for sigma 1 receptor in rat brain membrane. The class given is cell-based. The method in brief:
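Sigma-1: rat brain membranes, 3 nM [3H]pentazocine, 37 °C, 2.5 h. Sigma-2: PC12 homogenate, 1 nM [3H]DTG, room temperature, 2 h. […] Filtration and scintillation counting; IC50 from logistic fit converted to Ki by Cheng-Prusoff. Ratio is sigma-2 Ki over sigma-1 Ki.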

Turning to `COc1cc2oc(C(=O)N(CCCN3CCCCC3)c3ccccc3)c(C)c2cc1OC`, the Ratio Ki came to 19.
